The values that follow come from patent US6716822B2, “Therapeutic agent for ischemia which inhibits apoptosis under ischemic condition” (priority 2000, dated 2004).

This assay concerns HepG2 cells. Put plainly: HepG2 cell viability under low oxygen (1% v/v) condition, trypan blue exclusion. Type of assay: cell-based, human. As to conditions: 1% (v/v) oxygen.

The structures appear in SMILES notation.

In the case of `Nc1ccc(S(=O)(=O)Nc2ncccn2)cc1` [sulfadiazine], the “Enhancement effect on cell viability under hypoxic condition (in words)” value is on record as “did not show any effect”.
